The source of these data is PubChem BioAssay AID540364 (The Scripps Research Institute Molecular Screening Center, 2011).

Only a part is listed here, and it is no random draw. The source made the active and inactive calls.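 The calls were made as follows: active = activation above the average of all compounds screened plus 3 SD, cutoff fixed separately per campaign (cut at about 7.5% in these data); inactive = the rest.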

A short description of the experiment: FXN promoter activators, primary screen, cell-based, luciferase luminescence, HEK293 lucGAA850 (AID 540364).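 Also: 0% = DMSO wells and 100% = 10 µM SAHA wells.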 As to conditions: HEK293 lucGAA850 FXN promoter luciferase reporter, 24 h; at 6 µM; stronger effect = higher value; percent of 10 µM SAHA response. (In general: A reporter such as luciferase makes a cellular process visible.)
On to `N#CCCN(C(=O)COC(=O)C(O)(c1ccccc1)c1ccccc1)c1ccc(F)cc1`, for which the activation was inactive: -1.95%.

Regarding `CN(C(=O)Cc1ccc(Cl)c(Cl)c1)[C@H]1CC[C@@]2(CCCO2)C[C@@H]1N1CCCC1`, the activation is inactive: 1.08%.

`CN(C)C(=O)c1cc([N+](=O)[O-])cc2c1-c1c(cc([N+](=O)[O-])cc1[N+](=O)[O-])C2=O`: the activation was inactive: -0.03%.

In the case of `O=[N+]([O-])c1ccc2c(c1)nnn2O`, the activation is inactive: -1.53%.

In the case of `O=C(OC1CN2CCC1CC2)c1ccc(Cl)cc1` (centres undefined), the activation was inactive: -0.1%.

With `CS(=O)(=O)c1ccc(Cl)c(NC(=O)COC(=O)C(O)(c2ccccc2)c2ccccc2)c1`, the activation was inactive: -0.07%.

As to `COc1cc(C(=O)NCC2(N3CCOCC3)CCCCC2)cc(Cl)c1OC(C)C`, the activation was inactive: -0.5%.

On to `O=[As](O)(O)c1cccnc1`, for which the activation was inactive: 0%.

Consider `O=[As](O)(c1cccc(O)c1)c1cccc(O)c1`, for which the activation was inactive: 0.59%.

Regarding `Cc1cccc(OCC(=O)OC2CN3CCC2CC3)c1` (centres undefined), the activation is inactive: 3.02%.

Regarding `Nc1cccc2c([As](=O)(O)O)cccc12`, the activation is inactive: -2.1%.

Turning to `Cc1ccc(NCCc2c([N+](=O)[O-])cc([N+](=O)[O-])cc2[N+](=O)[O-])cc1`, the activation is inactive: 3.6%.

In the case of `CCCOP(=S)(Nc1nc(N)cc(=O)[nH]1)OCCC`, the activation was inactive: 2.7%.

For `CCOP(=O)(Nc1cccc2ccccc12)OCC`, the activation is inactive: -0.22%.

Take `COc1cc(C2NCCC3(OCCO3)C2(C)C)cc(OC)c1OC` (centres undefined): the activation is inactive: -1.25%.

As to `CCOP(=O)(NC(=NC(C)c1ccccc1)NC(C)c1ccccc1)OCC` (centres undefined), the activation is inactive: -0.87%.

Regarding `CCC1=CC2Cc3nc4ccc(Cl)cc4c(N)c3C(C1)C2` (centres undefined), the activation was inactive: -6.39%.

Turning to `O=P1(Nc2ccccn2)COc2ccccc2OC1`, the activation was inactive: 3.12%.

On to `CN(CCCl)Cc1cc(Cl)c(NC2=NCCN2)c(Cl)c1`, for which the activation is inactive: 0.49%.

`CCOP(=O)(Nc1ccc(C)cn1)OCC`: the activation is inactive: -2.66%.

Consider `CC(C)(C)C(=O)NC(Sc1ncccn1)C(Cl)(Cl)Cl` (centres undefined), for which the activation was inactive: 2.66%.

For the compound `Clc1n[nH]nc1-c1nn[nH][15n]1`, the activation is inactive: 0.77%.

As for `O=P1(N(CCCl)CCCl)NCCC(C(F)(F)F)O1` (centres undefined), the activation was inactive: 1.14%.

`COc1ccccc1CNC(=O)COC(=O)C(O)(c1ccccc1)c1ccccc1`: the activation is inactive: 0.37%.

As to `CN(C(=O)Cc1ccc(Cl)c(Cl)c1)[C@@H]1CCCC[C@H]1N1CCCC1`, the activation is inactive: -1.69%.

With `CC(C)/C=N\N=C(\N)N[N+](=O)[O-]`, the activation was inactive: -0.81%.

Regarding `CC1(CBr)Cn2c(nc3ccccc3c2=O)S1` (centres undefined), the activation was inactive: 1.32%.

Regarding `Cc1ccc(C(=O)OC2CN3CCC2CC3)cc1` (centres undefined), the activation was inactive: 0.6%.

Consider `CC1CCC(C(C)C)C(OP(=O)(Nc2ccccn2)c2ccccc2)C1` (centres undefined), for which the activation was inactive: -0.62%.

With `Cc1nn(-c2ccccc2)c2c1P(=O)(N1CCOCC1)N(C)C(c1ccccc1)=N2` (centres undefined), the activation is inactive: -0.59%.

In the case of `CN(C)C1(CNC(=O)c2ccc(S(C)(=O)=O)cc2)CCCCC1`, the activation was inactive: 1.37%.

As to `CCCC1OP(=O)(Nc2ccccc2)OCC1CC` (centres undefined), the activation is inactive: -0.39%.

On to `O=C(/C=C/c1ccccc1)OC1CN2CCC1CC2` (centres undefined), for which the activation is inactive: -0.3%.

For the compound `O=P1(Nc2ncccn2)COc2ccccc2OC1`, the activation was inactive: -0.67%.

For the compound `Nc1cccc([As](=O)(O)c2ccccc2)c1`, the activation is inactive: 1.12%.

`NS(=O)(=O)c1cccc(NC(=O)COC(=O)C(O)(c2ccccc2)c2ccccc2)c1`: the activation was inactive: 0.16%.

Take `O=P1(Nc2ccc(Br)cn2)COc2ccccc2OC1`: the activation was inactive: -1.02%.

For the compound `O=[As](O)(c1cccs1)c1cccs1`, the activation was inactive: 2.19%.

Regarding `Cc1ccc(OCC(=O)OC2CN3CCC2CC3)cc1` (centres undefined), the activation was inactive: -1.01%.

For `O=C(O)C(O)c1ccc(N(CCCl)CCCl)cc1` (centres undefined), the activation was inactive: 0%.

For the compound `CCOC(=O)Nc1ccc([As](=O)(O)O)c(O)c1`, the activation was inactive: 0.14%.

`CC1CCNP(=O)(N(CCCl)CCCl)O1` (centres undefined): the activation is inactive: -0.7%.

Take `COP(=O)(OC)N1CC1c1ccccc1` (centres undefined): the activation is inactive: -0.8%.

On to `Cc1cc(SC(NC(=O)c2ccccc2)C(Cl)(Cl)Cl)nc(C(C)C)n1` (centres undefined), for which the activation is inactive: 0.74%.

For the compound `CCCCOc1ccc(C(=O)NCC2(N3CCCCC3)CCCCC2)cc1OC`, the activation is inactive: -0.05%.

For `CCOC(=O)Nc1cccc([As](=O)(O)O)c1`, the activation was inactive: 1.04%.

`Cc1cc(SC(NC=O)C(Cl)(Cl)Cl)ncn1` (centres undefined): the activation was inactive: 2.55%.

On to `O=P(Nc1ccccn1)(c1cccc2ccccc12)c1cccc2ccccc12`, for which the activation was inactive: 4.43%.

For the compound `O=[N+]([O-])c1ccc(Nc2ccc(Oc3ccc([N+](=O)[O-])cc3[N+](=O)[O-])cc2)c([N+](=O)[O-])c1`, the activation was inactive: 2.84%.

In the case of `COP1(=S)c2c(C)nn(CCC#N)c2N=C(c2ccc(F)cc2)N1C` (centres undefined), the activation was inactive: 1.13%.

Take `O=C(O)C(=O)c1ccc(N(CCCl)CCCl)cc1`: the activation is inactive: 3.67%.

For the compound `O=C(Nc1ccncc1[N+](=O)[O-])c1ccc([N+](=O)[O-])cc1[N+](=O)[O-]`, the activation was inactive: -1.72%.

`O=C(COc1ccccc1)OC1CN2CCC1CC2` (centres undefined): the activation is inactive: -0.05%.

`CSc1ccc(Nc2c([N+](=O)[O-])cc([N+](=O)[O-])cc2[N+](=O)[O-])cc1`: the activation was inactive: -1.16%.

In the case of `O=C(OC1CN2CCC1CC2)c1cccc([N+](=O)[O-])c1` (centres undefined), the activation is inactive: 0.93%.

For the compound `CCOC(=O)c1ccc(NC(=O)C(C)(CCl)SC)cc1` (centres undefined), the activation is inactive: 1.73%.

Turning to `CCC(C)N(CC(C)C)C(=S)SC(NC(C)=O)C(Cl)(Cl)Cl` (centres undefined), the activation was inactive: 0.5%.

With `Cc1c2c(nc3ccccc13)SC(C(Cl)Cl)C2` (centres undefined), the activation is inactive: 0.67%.

For the compound `Cc1cc(=O)[nH]c(N[N+](=O)[O-])n1`, the activation is inactive: 1.97%.

Turning to `O=C(OC1CN2CCC1CC2)C12CC3CC(CC(C3)C1)C2` (centres undefined), the activation was inactive: 0.16%.

For `O=P1(N(CCCl)CCCl)Nc2ccccc2N1`, the activation was inactive: 4.24%.

Consider `O=P1(N(CCCl)CCCl)OCCCN1CCCl` (centres undefined), for which the activation is inactive: 1.2%.

Consider `COc1cc(I)ccc1[As](=O)(O)O`, for which the activation was inactive: 3.16%.

In the case of `COc1ccc2nc(NP(=O)(c3ccccc3)c3ccccc3)sc2c1`, the activation was inactive: 0.27%.

`O=[N+]([O-])c1cc(Oc2ccc([N+](=O)[O-])cc2C(F)(F)F)cc([N+](=O)[O-])c1`: the activation was inactive: 0.21%.

On to `COc1ccc(N/C(=N/P(=O)(N2CCOCC2)N2CCOCC2)N2CCOCC2)cc1`, for which the activation was inactive: -1.04%.

`COc1cc(C(=O)NCC2(N3CCOCC3)CCCCC2)ccc1OCC(C)C`: the activation is inactive: 1.5%.

As for `O=[N+]([O-])c1ccc(-c2cc([N+](=O)[O-])c(O)c([N+](=O)[O-])c2)cc1`, the activation is inactive: 1.59%.

For `C[As](=O)(O)c1cccc(C(=O)O)c1`, the activation is inactive: 0.25%.

In the case of `O=[As](O)(c1ccc(O)cc1)c1ccccc1O`, the activation is inactive: 1.07%.

`Cc1ccc(OP(=O)(Nc2ccc([N+](=O)[O-])cn2)Oc2ccc(C)cc2)cc1`: the activation is inactive: 2.03%.

On to `Cc1ccc2nc3c(c(C)c2c1)CC(C(Cl)Cl)S3` (centres undefined), for which the activation is inactive: 2.68%.

For `ClCCSc1nnc(-c2cccnc2)o1`, the activation is inactive: 2.81%.

`CC(C)c1ccc(OP(=O)(Nc2ccccn2)Oc2ccccc2F)cc1` (centres undefined): the activation was inactive: 3.34%.

With `COC(=O)C1(C)COP(=O)(N2CCCCCC2)OC1` (centres undefined), the activation is inactive: -1.2%.

In the case of `O=[N+]([O-])c1cc([N+](=O)[O-])c(-c2ccn[nH]2)s1`, the activation was active: 8.38%.

Consider `O=C(OC1CN2CCC1CC2)c1cccc2[nH]cnc12` (centres undefined), for which the activation was inactive: 4.03%.

On to `CCN(CC)C(=S)SC(NC=O)C(Cl)(Cl)Cl` (centres undefined), for which the activation was inactive: -0.18%.

In the case of `CC(C)NC(=O)NP(=O)(Oc1ccccc1)Oc1ccccc1`, the activation is inactive: 3.03%.
